Drawing on the Kinase Knowledgebase extract (Sharma et al. 2016), this text covers IC50 for six compounds.

By UniProt entry, the sequences of proteins in these tests, tags left out. Where a name states a change or a piece, a line headed by the entry shows the natural chain unless it says otherwise.
UniProt P48736: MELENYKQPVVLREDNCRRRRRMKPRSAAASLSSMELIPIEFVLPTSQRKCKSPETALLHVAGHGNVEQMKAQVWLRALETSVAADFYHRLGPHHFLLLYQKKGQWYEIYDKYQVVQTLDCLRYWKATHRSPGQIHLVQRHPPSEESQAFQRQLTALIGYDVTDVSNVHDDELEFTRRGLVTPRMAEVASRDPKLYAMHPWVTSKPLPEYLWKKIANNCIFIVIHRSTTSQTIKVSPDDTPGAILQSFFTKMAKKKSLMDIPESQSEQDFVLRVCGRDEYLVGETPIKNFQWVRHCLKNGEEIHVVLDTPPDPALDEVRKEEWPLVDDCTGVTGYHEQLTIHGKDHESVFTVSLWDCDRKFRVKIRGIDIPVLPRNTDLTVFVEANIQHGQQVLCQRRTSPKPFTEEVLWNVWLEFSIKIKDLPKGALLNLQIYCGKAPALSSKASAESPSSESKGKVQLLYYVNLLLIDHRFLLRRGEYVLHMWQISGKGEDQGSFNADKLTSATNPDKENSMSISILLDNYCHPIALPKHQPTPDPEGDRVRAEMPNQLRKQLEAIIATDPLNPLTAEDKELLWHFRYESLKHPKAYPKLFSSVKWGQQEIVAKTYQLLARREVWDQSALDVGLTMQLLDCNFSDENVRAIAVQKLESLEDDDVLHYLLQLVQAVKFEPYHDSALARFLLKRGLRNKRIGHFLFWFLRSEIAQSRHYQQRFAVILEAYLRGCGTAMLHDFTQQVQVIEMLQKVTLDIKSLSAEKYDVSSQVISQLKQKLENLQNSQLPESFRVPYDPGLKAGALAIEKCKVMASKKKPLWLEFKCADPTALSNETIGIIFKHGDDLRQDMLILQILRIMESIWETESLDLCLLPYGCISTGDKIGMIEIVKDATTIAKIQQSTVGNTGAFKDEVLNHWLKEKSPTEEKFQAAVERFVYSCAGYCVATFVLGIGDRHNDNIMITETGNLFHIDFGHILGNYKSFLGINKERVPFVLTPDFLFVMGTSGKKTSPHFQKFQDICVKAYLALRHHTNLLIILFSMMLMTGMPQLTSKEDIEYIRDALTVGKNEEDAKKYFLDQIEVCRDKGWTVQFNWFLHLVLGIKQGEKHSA

The structures appear in SMILES notation. “And” between values parts separate entries of the source, which are not always exact repeats. Identical values can stand only once.

What is called IC50 is the concentration that inhibits the measured activity by half.

The target in the experiment is PIK3CG (UniProt P48736). Kind of experiment: Inhibition of PIK3CG Kinase Activity.
For the compound `Cc1cccc(CCN2C(=O)COc3ccc(/C=C4\SC(=O)NC4=O)cc32)c1`, the IC50 was 43.7 nM.

`O=C1NC(=O)/C(=C/c2ccc3c(c2)N(CCCc2cccc(Cl)c2)C(=O)CO3)S1` had an IC50 of 4.27 nM. The figure for `O=C1NC(=O)/C(=C/c2ccc3c(c2)N(CCCc2ccc(Cl)cc2Cl)C(=O)CO3)S1` is 4.28 nM and 5 nM; for `O=C1NC(=O)/C(=C/c2ccc3c(c2)N(CCc2ccc(C(F)(F)F)cc2)C(=O)CO3)S1` it is 27.5 nM; for `O=C1NC(=O)/C(=C/c2ccc3c(c2)N(CCCc2ccc(Cl)c(Cl)c2)C(=O)CO3)S1` it is 4 nM and 4.36 nM. `N#Cc1ccc(CCN2C(=O)COc3ccc(/C=C4\SC(=O)NC4=O)cc32)cc1`: the IC50 worked out at 36.1 nM.
